Target: human LPA1 (Homo sapiens, UniProt Q92633)
Assay: LPA1 functional antagonist assay (calcium flux)
Assay type: cell-based

Chains of the proteins cited; added tags and fusions are not shown.
UniProt Q92633, whole entry: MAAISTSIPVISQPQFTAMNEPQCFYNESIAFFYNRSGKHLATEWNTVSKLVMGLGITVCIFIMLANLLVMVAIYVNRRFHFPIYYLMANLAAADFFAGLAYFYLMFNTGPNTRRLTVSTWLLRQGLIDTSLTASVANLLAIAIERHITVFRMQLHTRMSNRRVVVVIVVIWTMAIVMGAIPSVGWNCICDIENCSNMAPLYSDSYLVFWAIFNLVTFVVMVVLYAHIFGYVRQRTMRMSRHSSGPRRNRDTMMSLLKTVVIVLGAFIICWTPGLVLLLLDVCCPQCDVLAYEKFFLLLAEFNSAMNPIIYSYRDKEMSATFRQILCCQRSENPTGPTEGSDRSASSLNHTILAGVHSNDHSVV

| SMILES | IC50 |
| --- | --- |
| Cc1nc(-c2nnn(C)c2CNc2nccc(C(C)CC(F)(F)F)n2)ccc1O[C@H]1CCC[C@H](C(=O)O)C1 (stereo partly shown) | 0.067 µM |
| Cn1nnc(-c2ccc(O[C@H]3CCC[C@H](C(=O)O)C3)cn2)c1CNc1nccc(-c2cccnc2)n1 [Example 32] | 1.21 µM |
| COc1cccc(-c2ccnc(NCc3c(-c4ccc(O[C@H]5CCC[C@H](C(=O)O)C5)c(C)n4)nnn3C)n2)c1 | 0.15 µM |
| Cc1nc(-c2nnn(C)c2CNc2nccc(Nc3ccccc3)n2)ccc1O[C@H]1CCC[C@H](C(=O)O)C1 | 0.182 µM |

— patent US11267800B2, “Cyclohexyl acid triazole azines as LPA antagonists” (BRISTOL-MYERS SQUIBB COMPANY, priority 2017, dated 2022)
